Experimental data from patent publication EP0706514B1, “COMPOUNDS AND METHODS FOR INHIBITION OF HIV AND RELATED VIRUSES” (MEDIVIR AB, priority 1993, dated 1995).

Target: T1, recombinant HIV-RT (Human immunodeficiency virus type 1 group M subtype B, UniProt P04585)
T1 construct: recombinant HIV-RT (diluted in virus disruption buffer to give 200.000 cpm)
Assay: biochemical
Details: Test I
Description: 100 mM Tris-HCl pH 7.6, 100 mM KCl, 4 mM MgCl2, 4 mM DTT, 275 mg/ml BSA, 0.5 mg (rA)n(dT)12-18 and 0.3 mM ^3H-=dTTP (specific activity 18.000 cpm/mol). After 60 minutess of incubation 40 ml in duplicate were spotted on paper discs and washed in 5% TCA. After rinsing the paper discs in ethanol they were dried and counted in scintillation fluid.

CCOc1ccc(F)c(CCNC(=O)Nc2ccc(Br)cn2)c1Cl
inhibition at 0.01 µg/mL: 82%
% inhibition (0.01 µg/ml): 83%
